Literature values as cited in article PMC7650794, “Pharmacological Modulation of Blood–Brain Barrier Permeability by Kinin Analogs in Normal and Pathologic Conditions” (Pharmaceuticals, 2020).

Test system: GBM patients, EGFR-positive glioma
Parameters: method as in 2 sources, one per row (each row's own in cited_ref): ref [40] = [40]; PMID 28791656; doi:10.1007/s40263-017-0456-6; 40. Westphal M. Maire C.L. Lamszus K. EGFR as a Target for Glioblastoma Treatment: An Unfulfilled Promise CNS Drugs 2017 31 723 735 10.1007/s40263-017-0456-6 28791656 PMC5573763 ||| ref [41] = [41]; PMID 29790314; 41. Kulason K.O. Schneider J.R. Chakraborty S. Filippi C.G. Pramanik B. Wong T. Fralin S. Tan K. Ray A. Alter R.A. Superselective intraarterial cerebral infusion of cetuximab with blood brain barrier
Settings: cited from earlier work

## Cetuximab: recombinant monoclonal antibody targeting the EGFR
Prospective Phase I study, mannitol-induced BBB disruption prior to infusion, EGFR-positive glioma patients, ref [41]
  safety and efficacy with mannitol-induced BBB disruption: promising initial findings
Single agent or in combination, ref [40]
  clinical efficacy for GBM: failed to demonstrate clinical efficacy either as a single agent or in combination for GBM
